# Results: PMC9742833
# Sequences of proteins named here, by UniProt entry; tags and fusion partners are left off. A change or cut given only in a name is not applied to a line headed by its entry.
# UniProt P33261, whole entry: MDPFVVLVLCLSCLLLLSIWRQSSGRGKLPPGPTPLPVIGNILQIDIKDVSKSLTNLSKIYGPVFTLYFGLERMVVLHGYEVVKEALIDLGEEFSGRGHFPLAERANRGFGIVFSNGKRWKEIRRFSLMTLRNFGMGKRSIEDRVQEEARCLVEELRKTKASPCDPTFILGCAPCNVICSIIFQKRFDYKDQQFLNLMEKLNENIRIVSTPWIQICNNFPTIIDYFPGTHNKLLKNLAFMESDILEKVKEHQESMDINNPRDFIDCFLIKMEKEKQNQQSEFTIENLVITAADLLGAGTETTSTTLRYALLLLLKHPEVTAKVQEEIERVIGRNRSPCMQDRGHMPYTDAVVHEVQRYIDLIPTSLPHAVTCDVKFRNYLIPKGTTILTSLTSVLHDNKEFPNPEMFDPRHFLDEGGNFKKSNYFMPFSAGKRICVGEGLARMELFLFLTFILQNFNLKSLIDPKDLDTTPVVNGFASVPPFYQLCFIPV
# UniProt P20815, whole entry: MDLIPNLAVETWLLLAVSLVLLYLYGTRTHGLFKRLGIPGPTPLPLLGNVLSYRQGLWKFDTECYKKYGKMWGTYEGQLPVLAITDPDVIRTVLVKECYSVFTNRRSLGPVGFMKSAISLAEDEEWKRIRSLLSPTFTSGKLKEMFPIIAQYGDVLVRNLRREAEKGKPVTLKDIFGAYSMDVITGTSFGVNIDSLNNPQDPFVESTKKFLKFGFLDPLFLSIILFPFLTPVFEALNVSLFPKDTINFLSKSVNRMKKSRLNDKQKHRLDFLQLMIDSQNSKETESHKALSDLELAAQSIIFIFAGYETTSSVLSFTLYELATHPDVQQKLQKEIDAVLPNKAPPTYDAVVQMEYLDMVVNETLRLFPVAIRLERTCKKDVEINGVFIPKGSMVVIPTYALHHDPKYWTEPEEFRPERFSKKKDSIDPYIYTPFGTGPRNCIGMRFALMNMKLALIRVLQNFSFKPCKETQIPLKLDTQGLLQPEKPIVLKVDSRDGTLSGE
# UniProt P05181: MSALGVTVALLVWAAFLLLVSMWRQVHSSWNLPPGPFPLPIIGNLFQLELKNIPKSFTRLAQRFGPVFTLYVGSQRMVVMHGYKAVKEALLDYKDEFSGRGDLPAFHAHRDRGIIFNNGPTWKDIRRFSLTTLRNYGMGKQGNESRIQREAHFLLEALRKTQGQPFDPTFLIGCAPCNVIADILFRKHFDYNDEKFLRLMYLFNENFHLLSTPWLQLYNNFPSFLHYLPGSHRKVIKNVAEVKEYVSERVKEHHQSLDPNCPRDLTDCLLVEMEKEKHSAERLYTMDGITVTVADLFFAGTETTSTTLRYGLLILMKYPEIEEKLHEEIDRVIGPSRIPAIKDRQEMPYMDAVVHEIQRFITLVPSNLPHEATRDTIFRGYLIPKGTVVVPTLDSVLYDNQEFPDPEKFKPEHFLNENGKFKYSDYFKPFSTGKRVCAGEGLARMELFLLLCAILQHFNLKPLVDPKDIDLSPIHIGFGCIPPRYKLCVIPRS
# Key:
# Test in all cases: Time-dependent inhibition (IC50 shift, NADPH pre-incubation)
# Type in all cases: biochemical
# Parameters in all cases: purchased Life Technologies
# CYP2B6 = biological target: T1, CYP2B6 (Homo sapiens, UniProt P20813); settings: pH 8, probe Vivid BOMCC (7-benzyloxymethyloxy-3-cyanocoumarin), shift > 2 = significant TDI
# T1 sequence (P20813 1-491): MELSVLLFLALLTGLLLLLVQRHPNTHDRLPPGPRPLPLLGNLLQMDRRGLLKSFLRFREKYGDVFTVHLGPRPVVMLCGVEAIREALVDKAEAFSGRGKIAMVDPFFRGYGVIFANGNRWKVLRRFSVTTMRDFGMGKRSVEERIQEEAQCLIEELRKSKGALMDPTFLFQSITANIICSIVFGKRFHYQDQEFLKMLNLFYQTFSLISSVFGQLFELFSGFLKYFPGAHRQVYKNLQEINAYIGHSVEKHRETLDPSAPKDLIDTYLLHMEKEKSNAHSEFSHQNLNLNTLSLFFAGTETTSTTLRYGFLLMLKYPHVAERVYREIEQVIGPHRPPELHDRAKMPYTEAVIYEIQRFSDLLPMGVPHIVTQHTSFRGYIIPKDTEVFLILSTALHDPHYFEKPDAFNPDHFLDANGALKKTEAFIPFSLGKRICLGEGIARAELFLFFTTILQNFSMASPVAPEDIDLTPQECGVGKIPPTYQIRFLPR
# CYP2J2 = biological target: T2, CYP2J2 (Homo sapiens, UniProt P51589); settings: pH 8, probe Vivid MOBFC (7-p-methoxy-benzyloxy-4-trifluorocoumarin), shift > 2 = significant TDI
# T2 sequence (P51589 1-502): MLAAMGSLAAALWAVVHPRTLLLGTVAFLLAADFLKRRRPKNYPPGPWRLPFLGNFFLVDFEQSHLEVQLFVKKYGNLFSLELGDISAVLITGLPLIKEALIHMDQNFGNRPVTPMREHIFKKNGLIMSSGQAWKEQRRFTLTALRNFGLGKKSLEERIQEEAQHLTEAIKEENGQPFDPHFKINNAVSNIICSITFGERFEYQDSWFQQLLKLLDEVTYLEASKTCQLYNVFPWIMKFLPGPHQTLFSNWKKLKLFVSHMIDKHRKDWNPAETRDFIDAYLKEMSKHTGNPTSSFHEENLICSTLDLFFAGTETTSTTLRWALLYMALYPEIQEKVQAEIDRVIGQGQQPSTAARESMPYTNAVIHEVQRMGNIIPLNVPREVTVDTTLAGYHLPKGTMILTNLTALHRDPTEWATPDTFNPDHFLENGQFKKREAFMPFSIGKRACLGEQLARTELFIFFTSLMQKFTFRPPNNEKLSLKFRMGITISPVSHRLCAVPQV
# CYP1A2 = biological target: T3, CYP1A2 (Homo sapiens, UniProt P05177); settings: pH 8, probe Vivid EOMCC (ethoxymethyloxy-3-cyanocoumarin), shift > 2 = significant TDI
# T3 sequence (P05177 2-516 limits assumed): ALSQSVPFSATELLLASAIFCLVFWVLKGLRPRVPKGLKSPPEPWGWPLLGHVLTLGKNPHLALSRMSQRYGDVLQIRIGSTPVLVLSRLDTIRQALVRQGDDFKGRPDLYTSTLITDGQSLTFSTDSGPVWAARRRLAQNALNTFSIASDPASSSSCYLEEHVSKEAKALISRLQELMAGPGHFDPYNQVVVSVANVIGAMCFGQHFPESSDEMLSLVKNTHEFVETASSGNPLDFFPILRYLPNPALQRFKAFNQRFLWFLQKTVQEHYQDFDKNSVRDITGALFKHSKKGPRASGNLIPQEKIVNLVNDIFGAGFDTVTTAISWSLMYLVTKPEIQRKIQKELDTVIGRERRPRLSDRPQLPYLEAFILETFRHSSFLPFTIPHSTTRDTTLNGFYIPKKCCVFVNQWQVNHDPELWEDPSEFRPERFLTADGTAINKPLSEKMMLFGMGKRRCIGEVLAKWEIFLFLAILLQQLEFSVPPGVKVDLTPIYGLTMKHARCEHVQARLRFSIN
# CYP2C19 = CYP2C19 (Homo sapiens, UniProt P33261); settings: pH 8, probe Vivid EOMCC (ethoxymethyloxy-3-cyanocoumarin), shift > 2 = significant TDI
# CYP3A5 = CYP3A5 (Homo sapiens, UniProt P20815); settings: pH 8, probe Vivid BOMCC (7-benzyloxymethyloxy-3-cyanocoumarin), shift > 2 = significant TDI
# CYP2E1 = CYP2E1 (Homo sapiens, UniProt P05181); settings: pH 8, probe Vivid EOMCC (ethoxymethyloxy-3-cyanocoumarin), shift > 2 = significant TDI
compound,measurement,setting,value
"C[C@H](N)C(=O)c1ccccc1 [Cathinone, (S)− 2-Amino-1-phenyl-1-propanone.hydrochloride]",IC50 shift at 60 min,CYP2B6,1.5
same,IC50 shift at 60 min,CYP2J2,0.84
same,IC50 shift at 60 min,CYP1A2,0.23
same,IC50 shift at 60 min,CYP2C19,0.53
same,IC50 shift at 120 min,CYP3A5,1.8
same,IC50 shift at 60 min,CYP2E1,0.73

# Where a name gives a salt, the structure may show the parent alone.
